Test results taken from patent publication US20240018123A1, “COMPOUND FOR INHIBITING OR DISINTEGRATING ANDROGEN RECEPTOR, AND PHARMACEUTICAL USE THEREOF” (KOREA RESEARCH INSTITUTE OF CHEMICAL TECHNOLOGY, priority 2020, published 2024).

Experiments:
LNCaP cells = test: Cytotoxicity assessment (Cell-titer-glo cell viability), LNCaP; conditions: read-out: LNCAP (CC50), 6 days of treatment, vs DMSO
VCaP cells = test: Cytotoxicity assessment (Cell-titer-glo cell viability), VCaP; conditions: read-out: VCaP (CC50), 6 days of treatment, vs DMSO

Molecule | CC50 (LNCaP cells) | CC50 (VCaP cells)
CC1(C)C(NC(=O)c2ccc(N3CCN(Cc4cn(C5CCN(c6ccc7nnn(C8CCC(=O)NC8=O)c(=O)c7c6)CC5)nn4)CC3)cc2)C(C)(C)C1Oc1ccc(C#N)c(Cl)c1 (centres unmarked) [Example 105, N-((1r,3r)-3-(3-chloro-4-cyanophenoxy)-2,2,4,4-tetramethylcyclobutyl)-4-(4-((1-(1-(3-(2,6-dioxopiperidin-3-yl)-4-oxo-3,4-dihydrobenzo[d][1,2,3]triazin-6-yl)piperidin-4-yl)-1H-1,2,3-triazol-4-yl)methyl)piperazin-1-yl)benzamide] | 0.026 µM | –
N-((1r,3r)-3-(3-chloro-4-cyanophenoxy)-2,2,4,4-tetramethylcyclobutyl)-4-(4-(1-(3-(2,6-dioxopiperidin-3-yl)-4-oxo-3,4-dihydrobenzo[d][1,2,3]triazin-6-yl)azetidine-3-carbonyl)piperazin-1-yl)benzamide [Example 44] | – | 0.0259 µM
